Reference: patent US20190153024A1, “NOVEL SALTS AND POLYMORPHS OF SCY-078” (priority 2015, published 2019)

Experiments:
Format in all cases: physicochemical
[1] = Kinetic solubility in water (citrate Type A, freebase/citric acid mixture, amorphous citrate); settings: for Form: residual solid by XRPD; for XRPD Form: remaining solid
[2] = Solubility of citrate Type N and Type Q in EtOH at 5° C. and 20° C.; settings: EtOH solubility experiments
[3] = Equilibrium solubility in water; settings: initial pH 8.0, 24 hrs

CC(C)[C@@H](C)[C@@]1(C)CC[C@]2(C)[C@H]3CC[C@@H]4[C@@]5(COC[C@]4(C)[C@@H](OC[C@](C)(N)C(C)(C)C)[C@H](n4ncnc4-c4ccncc4)C5)C3=CC[C@@]2(C)[C@@H]1C(=O)O.O=C(O)CC(O)(CC(=O)O)C(=O)O [SCY-078 citrate amorphous]
Form ([1]; starting solid from fast evaporation in THF (pH 8.0), 1 hr): Amorphous
Form ([1]; starting solid from lyophilization in pH 6.0 buffer, 1 hr): Amorphous
Form ([1]; starting solid from lyophilization in pH 6.0 buffer, 4 hrs): Amorphous
Form ([1]; starting solid from lyophilization in pH 6.0 buffer, 24 hrs): Amorphous
Form ([1]; starting solid from lyophilization in water (pH 8.0), 1 hr): Amorphous
pH ([1]; water, starting solid from fast evaporation in THF (pH 8.0), 1 hr): 3.2
pH ([1]; water, starting solid from fast evaporation in THF (pH 8.0), 4 hrs): 3.2
pH ([1]; water, starting solid from fast evaporation in THF (pH 8.0), 24 hrs): 3.2
pH ([1]; water, starting solid from lyophilization in water (pH 8.0), 1 hr): 3.1
pH ([1]; water, starting solid from lyophilization in water (pH 8.0), 4 hrs): 3.3
pH ([1]; water, starting solid from lyophilization in water (pH 8.0), 24 hrs): 3.2

CC(C)[C@@H](C)[C@@]1(C)CC[C@]2(C)[C@H]3CC[C@@H]4[C@@]5(COC[C@]4(C)[C@@H](OC[C@](C)(N)C(C)(C)C)[C@H](n4ncnc4-c4ccncc4)C5)C3=CC[C@@]2(C)[C@@H]1C(=O)O.O=C(O)CC(O)(CC(=O)O)C(=O)O [SCY-078 citrate Type Q]
form change of remaining wet cake (XRPD) [2]: no form change

CC(C)[C@@H](C)[C@@]1(C)CC[C@]2(C)[C@H]3CC[C@@H]4[C@@]5(COC[C@]4(C)[C@@H](OC[C@](C)(N)C(C)(C)C)[C@H](n4ncnc4-c4ccncc4)C5)C3=CC[C@@]2(C)[C@@H]1C(=O)O.O=C(O)CC(O)(CC(=O)O)C(=O)O [SCY-078 citrate Type A]
Final pH ([3]; ratio of solid/solvent 0.3 mg/mL): 5.1
Final pH ([3]; ratio of solid/solvent 2.0 mg/mL): 4.2
Final pH ([3]; ratio of solid/solvent 50.6 mg/mL): 3.4
pH ([1]; kinetic solubility in water (initial pH 8.0), 1 hr): 3.3
pH ([1]; kinetic solubility in water (initial pH 8.0), 4 hrs): 3.3
pH ([1]; kinetic solubility in water (initial pH 8.0), 24 hrs): 3.4
XRPD Form ([1]; water, 20 mg/mL, 1 hr): Citrate Type A
XRPD Form ([1]; water, 20 mg/mL, 4 hrs): Citrate Type A
XRPD Form ([1]; water, 20 mg/mL, 24 hrs): Citrate Type A
XRPD Form ([1]; water, 50 mg/mL, 1 hr): Citrate Type A
XRPD Form ([1]; water, 50 mg/mL, 4 hrs): Citrate Type A
XRPD Form ([1]; water, 50 mg/mL, 24 hrs): Citrate Type A
pH ([1]; water, 20 mg/mL, 1 hr): 3.5
pH ([1]; water, 20 mg/mL, 4 hrs): 3.4
pH ([1]; water, 20 mg/mL, 24 hrs): 3.3
pH ([1]; water, 50 mg/mL, 1 hr): 3.4
pH ([1]; water, 50 mg/mL, 4 hrs): 3.3
pH ([1]; water, 50 mg/mL, 24 hrs): 3.2
dissolution behaviour in water ([1]; water, 1 hour to 24 hours): slow rate of dissolution and increasing solubility
solid form of residual solid in water ([1]; water, after 24 hours): partially converted to amorphous
